From patent US7495109B2, “Nociceptin analogs” (dated 2009)

These compounds were tested against Mu opioid receptor (Homo sapiens, UniProt P35372) (assay: Affinity at the μ receptor ([35S]GTPγS binding, membranes)). Conditions: read-out: Mu Receptor Affinity calc Ki; Table 5; mu opioid receptor membrane solution.
`CC=C1C(=O)N(C2CCN(Cc3ccc4ccccc4c3)CC2)c2ccccc21` gave a Ki of 137 nM. `O=c1oc2ccccc2n1C1CCN(CCC(c2ccccc2)c2ccccc2)CC1` gave a Ki of 726 nM. For `CC=C1C(=O)N(C2CCN(Cc3ccc(OCc4ccccc4)cc3)CC2)c2ccccc21`, the Ki was 1150 nM. Work on `CCn1c(=NC#N)n(C2CCN(C(C)CCC(C)C)CC2)c2ccccc21` (stereo not shown) yielded a Ki of 15 nM. `O=c1oc2ccccc2n1C1CCN(Cc2cccc3ccccc23)CC1` showed a Ki of 340 nM. With `CCCC1CCC(N2CCC(n3c(=NC#N)n(CC)c4ccccc43)CC2)CC1` (stereo not shown) the Ki was 46 nM. In the case of `O=c1oc2ccccc2n1C1CCN(C2CCc3ccccc3C2)CC1` (stereo not shown), the Ki is reported as 343 nM. `CCn1c(=NC#N)n(C2CCN(C3CC4CCC3C4)CC2)c2ccccc21` (stereo not shown) gave a Ki of 1650 nM. `CCCC1CCC(N2CCC(n3c(=O)oc4ccccc43)CC2)CC1` (stereo not shown) showed a Ki of 145 nM.

Each compound was assayed against human opioid receptor-like receptor (ORL-1) (Homo sapiens, UniProt P41146) (assay: Nociceptin affinity at the ORL1 receptor ([35S]GTPgS binding, HEK-293 membranes)). Conditions: read-out: Nociceptin Affinity calc Ki; Table 1; membranes from recombinant HEK-293 cells expressing human ORL-1.
With `O=c1oc2ccccc2n1C1CCN(CC2CCCCCCC2)CC1` the Ki was 64 nM. `O=c1oc2ccccc2n1C1CCN(CCC(c2ccccc2)c2ccccc2)CC1` gave a Ki of 726 nM. `O=c1oc2ccccc2n1C1CCN(Cc2ccc(-c3ccccc3)cc2)CC1` was tested, and the Ki was > 10000 nM. For `O=c1oc2ccccc2n1C1CCN(Cc2ccc(OCc3ccccc3)cc2)CC1`, the Ki was 2170 nM. In the case of `O=c1oc2ccccc2n1C1CCN(Cc2cccc3ccccc23)CC1`, the Ki is reported as 370 nM. Work on `O=c1oc2ccccc2n1C1CCN(CCCC(c2ccc(F)cc2)c2ccc(F)cc2)CC1` yielded a Ki of 3070 nM. In the case of `O=c1oc2ccccc2n1C1CCN(Cc2ccc3ccccc3c2)CC1`, the Ki is reported as 3030 nM. `O=c1oc2ccccc2n1C1CCN(C2c3ccccc3CCc3ccccc32)CC1` was tested, and the Ki was > 10000 nM. `CC(C)CCC(C)N1CCC(n2c(=O)oc3ccccc32)CC1` (stereo not shown) was tested, and the Ki was 60 nM. For `N#Cc1ccc(CN2CCC(n3c(=O)oc4ccccc43)CC2)cc1`, the Ki was > 10000 nM. `O=c1oc2ccccc2n1C1CCN(C2Cc3ccccc3C2)CC1` showed a Ki of 512 nM. `O=c1oc2ccccc2n1C1CCN(C2CCc3ccccc3C2)CC1` (stereo not shown) was tested, and the Ki was 93 nM. Work on `O=c1oc2ccccc2n1C1CCN(C2CCCCCCC2)CC1` yielded a Ki of 16 nM. `CC1(C)COC2(CCC(N3CCC(n4c(=O)oc5ccccc54)CC3)CC2)OC1` was tested, and the Ki was > 10000 nM. Compound `O=c1oc2ccccc2n1C1CCN(CCc2ccccc2)CC1` has a Ki of 7090 nM.

Same assay, conditions: read-out: Nociceptin Affinity calc Ki; Table 2; membranes from recombinant HEK-293 cells expressing human ORL-1
With `CC=C1C(=O)N(C2CCN(Cc3ccc4ccccc4c3)CC2)c2ccccc21` the Ki was 630 nM. With `CC(C)C1CCC(N2CCC(N3C(=O)Cc4ccccc43)C(C)C2)CC1` (stereo not shown) the Ki was 167 nM. `CCCC1CCC(N2CCC(N3C(=O)C(CC)c4ccccc43)CC2)CC1` (stereo not shown) was tested, and the Ki was 40 nM. `CC=C1C(=O)N(C2CCN(Cc3ccc(OCc4ccccc4)cc3)CC2)c2ccccc21` showed a Ki of 516 nM. With `CCCC1CCC(N2CCC(N3C(=O)Cc4ccccc43)C(C)C2)CC1` (stereo not shown) the Ki was 2440 nM. `CC=C1C(=O)N(C2CCN(Cc3ccccc3)CC2)c2ccccc21` was tested, and the Ki was 1850 nM. `CC=C1C(=O)N(C2CCN(Cc3ccc(C#N)cc3)CC2)c2ccccc21` showed a Ki of 7650 nM. For `CC(C)CCC(C)N1CCC(N2C(=O)Cc3ccccc32)C(C)C1` (stereo not shown), the Ki was 4340 nM. `O=C1Cc2ccccc2N1C1CCN(Cc2ccc3ccccc3c2)CC1` gave a Ki of 107 nM. `CC=C1C(=O)N(C2CCN(C3CC4CCC3C4)CC2)c2ccccc21` (stereo not shown) gave a Ki of 922 nM. `N#Cc1ccc(CN2CCC(N3C(=O)Cc4ccccc43)CC2)cc1` gave a Ki of 1270 nM. For `CCC1C(=O)N(C2CCN(C3CC4CCC3C4)CC2)c2ccccc21` (stereo not shown), the Ki was 82.7 nM. `O=C1Cc2ccccc2N1C1CCN(C2CC3CCC2C3)CC1` (stereo not shown) showed a Ki of 215 nM. `CC1CN(C2CCC3CCCCC3C2)CCC1N1C(=O)Cc2ccccc21` (stereo not shown) was tested, and the Ki was 366 nM. `O=C1Cc2ccccc2N1C1CCN(C2Cc3ccccc3C2)CC1` gave a Ki of 18.7 nM. For `CC=C1C(=O)N(C2CCN(CC3CCCCCCC3)CC2)c2ccccc21`, the Ki was 22.3 nM. With `CC=C1C(=O)N(C2CCN(C3Cc4ccccc4C3)CC2)c2ccccc21` the Ki was 20.7 nM. `CCC1C(=O)N(C2CCN(CC3CCCCCCC3)CC2)c2ccccc21` (stereo not shown) gave a Ki of 9 nM. Compound `CC(C)CCC(C)N1CCC(N2C(=O)Cc3ccccc32)CC1` (stereo not shown) has a Ki of 7.4 nM. `CC1CN(CC2CCCCCCC2)CCC1N1C(=O)Cc2ccccc21` (stereo not shown) was tested, and the Ki was 189 nM. Compound `CCC1C(=O)N(C2CCN(C3Cc4ccccc4C3)CC2)c2ccccc21` (stereo not shown) has a Ki of 43 nM. `CCC1C(=O)N(C2CCN(C(C)CCC(C)C)CC2)c2ccccc21` (stereo not shown) gave a Ki of 4 nM. `O=C1Cc2ccccc2N1C1CCN(Cc2ccc(OCc3ccccc3)cc2)CC1` was tested, and the Ki was 32 nM. For `CC1CN(Cc2ccccc2)CCC1N1C(=O)Cc2ccccc21` (stereo not shown), the Ki was > 10000 nM. For `CC=C1C(=O)N(C2CCN(C3CCC(CCC)CC3)CC2)c2ccccc21` (stereo not shown), the Ki was 19 nM. `O=C1Cc2ccccc2N1C1CCN(Cc2ccc(-c3ccccc3)cc2)CC1` was tested, and the Ki was 1360 nM. `O=C1Cc2ccccc2N1C1CCN(Cc2cccc3ccccc23)CC1` was tested, and the Ki was 92 nM. With `O=C1Cc2ccccc2N1C1CCN(C2CCc3ccccc3C2)CC1` (stereo not shown) the Ki was 28.7 nM. `CCC1C(=O)N(C2CCN(C3CCC4CCCCC4C3)CC2)c2ccccc21` (stereo not shown) gave a Ki of 3.6 nM. `CC=C1C(=O)N(C2CCN(C(C)CCC(C)C)CC2)c2ccccc21` (stereo not shown) was tested, and the Ki was 11.1 nM.

Same assay, conditions: read-out: Nociceptin Affinity calc Ki; Table 4 (headed TABLE 45); membranes from recombinant HEK-293 cells expressing human ORL-1
`CCn1c(=NC#N)n(C2CCN(C3CCC(C(C)C)CC3)CC2)c2ccccc21` (stereo not shown) gave a Ki of 6.9 nM. In the case of `CCn1c(=NC#N)n(C2CCN(C3Cc4ccccc4C3)CC2)c2ccccc21`, the Ki is reported as 89 nM. With `CCn1c(=NC#N)n(C2CCN(C3c4ccccc4CCc4ccccc43)CC2)c2ccccc21` the Ki was > 10000 nM. Compound `COC(=O)Cn1c(=NC#N)n(C2CCN(C3CCCCCCC3)CC2)c2ccccc21` has a Ki of 3.3 nM. `CCn1c(=NC#N)n(C2CCN(CC3CCCCCCC3)CC2)c2ccccc21` was tested, and the Ki was 7.1 nM. With `N#CN=c1[nH]c2ccccc2n1C1CCN(C2CCCCCCC2)CC1CO` (stereo not shown) the Ki was 473 nM. `N#CN=c1n(CC(=O)O)c2ccccc2n1C1CCN(C2CCCCCCC2)CC1` showed a Ki of 201 nM. `CCCCn1c(=NC#N)n(C2CCN(C3CCCCCCC3)CC2)c2ccccc21` was tested, and the Ki was 1.36 nM. For `CCn1c(=NC#N)n(C2CCN(C(C)CCC(C)C)CC2)c2ccccc21` (stereo not shown), the Ki was 76 nM. `N#CN=c1[nH]c2cccnc2n1C1CCN(C2CCCCCCC2)CC1` was tested, and the Ki was 3740 nM. For `CCn1c(=NC#N)n(C2CCN(C3CCCCCCC3)CC2)c2ccccc21`, the Ki was 5.57 nM. In the case of `CCn1c(=NC#N)n(C2CCN(CCC(c3ccccc3)c3ccccc3)CC2)c2ccccc21`, the Ki is reported as 80 nM. For `CCCC1CCC(N2CCC(n3c(=NC#N)n(CC)c4ccccc43)CC2)CC1` (stereo not shown), the Ki was 241 nM. With `CS(=O)(=O)NCCn1c(=NC#N)n(C2CCN(C3CCCCCCC3)CC2)c2ccccc21` the Ki was 78 nM. With `CCn1c(=NC#N)n(C2CCN(C3CC4CCC3C4)CC2)c2ccccc21` (stereo not shown) the Ki was 323 nM. Work on `CCn1c(=NC#N)n(C2CCN(Cc3ccc(-c4ccccc4)cc3)CC2)c2ccccc21` yielded a Ki of 5560 nM. With `CN(C)CCn1c(=NC#N)n(C2CCN(C3CCCCCCC3)CC2)c2ccccc21` the Ki was 18 nM. Compound `CCn1c(=NC#N)n(C2CCN(Cc3ccc(OCc4ccccc4)cc3)CC2)c2ccccc21` has a Ki of 1660 nM. With `N#CN=c1n(CCO)c2ccccc2n1C1CCN(C2CCCCCCC2)CC1` the Ki was 6.4 nM. In the case of `CCn1c(=NC#N)n(C2CCN(Cc3ccc4ccccc4c3)CC2)c2ccccc21`, the Ki is reported as 882 nM. `N#CCn1c(=NC#N)n(C2CCN(C3CCCCCCC3)CC2)c2ccccc21` was tested, and the Ki was 0.97 nM. With `CCn1c(=NC#N)n(C2CCN(C3CCC4CCCCC4C3)CC2)c2ccccc21` (stereo not shown) the Ki was 6.6 nM.
